Key:
[1] = 101.33 kPa, Liquid, Vibrating tube method
[2] = excess molar enthalpy (molar enthalpy of mixing); xn = mol fraction of the nth substance listed; conditions: 100 kPa, Liquid, isothermal titration calorimetry

CCCCOCCCC [dibutyl ether]
[1]
Conditions	mass density [kg/m3]
288.15 K	772.45
293.15 K	768.05
298.15 K	763.7
303.15 K	759.4
308.15 K	755
313.15 K	750.62
318.15 K	746.24
323.15 K	741.87

CCCCOCCCC [dibutyl ether] + CC#N
[2]
Conditions	excess molar enthalpy [kcal/mol]
298.15 K, x2 = 0.0599	0.0776
298.15 K, x2 = 0.113	0.131
298.15 K, x2 = 0.1604	0.171
298.15 K, x2 = 0.2031	0.202
298.15 K, x2 = 0.2416	0.226
298.15 K, x2 = 0.3084	0.26
298.15 K, x2 = 0.3644	0.28
298.15 K, x2 = 0.412	0.292
298.15 K, x2 = 0.453	0.299
298.15 K, x2 = 0.4886	0.302
298.15 K, x2 = 0.5199	0.304
298.15 K, x2 = 0.5476	0.303
298.15 K, x2 = 0.5722	0.301
298.15 K, x2 = 0.5944	0.299
298.15 K, x2 = 0.6143	0.296
298.15 K, x2 = 0.6367	0.292
298.15 K, x2 = 0.6567	0.287
298.15 K, x2 = 0.6745	0.282
298.15 K, x2 = 0.6906	0.277
298.15 K, x2 = 0.7052	0.272
298.15 K, x2 = 0.7185	0.267
298.15 K, x2 = 0.7306	0.262
298.15 K, x2 = 0.7417	0.257
298.15 K, x2 = 0.752	0.252
298.15 K, x2 = 0.7615	0.248
298.15 K, x2 = 0.7952	0.225
298.15 K, x2 = 0.8161	0.212
298.15 K, x2 = 0.8382	0.196
298.15 K, x2 = 0.8615	0.177
298.15 K, x2 = 0.8761	0.164
298.15 K, x2 = 0.8911	0.149
298.15 K, x2 = 0.9068	0.132
298.15 K, x2 = 0.9229	0.113
298.15 K, x2 = 0.9397	0.0921
298.15 K, x2 = 0.9512	0.0764
298.15 K, x2 = 0.9629	0.0594
298.15 K, x2 = 0.975	0.0411
298.15 K, x2 = 0.9873	0.021
308.15 K, x2 = 0.0591	0.082
308.15 K, x2 = 0.1116	0.139
308.15 K, x2 = 0.1586	0.181
308.15 K, x2 = 0.2008	0.213
308.15 K, x2 = 0.239	0.238
308.15 K, x2 = 0.3054	0.274
308.15 K, x2 = 0.3612	0.295
308.15 K, x2 = 0.4087	0.308
308.15 K, x2 = 0.4496	0.315
308.15 K, x2 = 0.4852	0.319
308.15 K, x2 = 0.5164	0.32
308.15 K, x2 = 0.5441	0.319
308.15 K, x2 = 0.5688	0.318
308.15 K, x2 = 0.591	0.315
308.15 K, x2 = 0.611	0.311
308.15 K, x2 = 0.6335	0.307
308.15 K, x2 = 0.6535	0.302
308.15 K, x2 = 0.6715	0.297
308.15 K, x2 = 0.6877	0.291
308.15 K, x2 = 0.7023	0.286
308.15 K, x2 = 0.7157	0.28
308.15 K, x2 = 0.7177	0.277
308.15 K, x2 = 0.7279	0.275
308.15 K, x2 = 0.7386	0.268
308.15 K, x2 = 0.7391	0.27
308.15 K, x2 = 0.7494	0.265
308.15 K, x2 = 0.7589	0.26
308.15 K, x2 = 0.7607	0.257
308.15 K, x2 = 0.7842	0.243
308.15 K, x2 = 0.8092	0.227
308.15 K, x2 = 0.8358	0.206
308.15 K, x2 = 0.8526	0.192
308.15 K, x2 = 0.8701	0.176
308.15 K, x2 = 0.8884	0.158
308.15 K, x2 = 0.9074	0.137
308.15 K, x2 = 0.9273	0.112
308.15 K, x2 = 0.941	0.0938
308.15 K, x2 = 0.9551	0.0736
308.15 K, x2 = 0.9696	0.0514
308.15 K, x2 = 0.9846	0.0268
